Experimental data reported in patent publication US20240016795A1 (published 2024).

Molecular target: BRD4 bromodomain (Homo sapiens, UniProt O60885)
Assay: biochemical
Conditions: IC50, BRD4, HTRF / time-resolved fluorescence assay

`COC(=O)N1c2ccc3c(nc([C@H](O)c4cc(F)ccc4OC(F)F)n3[C@@H]3CCC[C@@H](C(=O)O)C3)c2CC[C@@H]1C` [Compound 3, (1R,3R)-3-((S)-2-((R)-(2-(difluoromethoxy)-5-fluorophenyl)(hydroxy)methyl)-6-(methoxycarbonyl)-7-methyl-6,7,8,9-tetrahydro-3H-imidazo[4,5-f]quinolin-3-yl)cyclohexane-1-carboxylic acid] gave an IC50 greater than 1000 nM.
